# Test results as given in patent US20250263405A1, “HISTONE DEACETYLASE 6 INHIBITOR COMPOUNDS AND USES THEREOF” (VALO HEALTH, INC., priority 2021, published 2025).
# Chains of the proteins cited; added tags and fusions are not shown.
# UniProt Q9UBN7, whole entry: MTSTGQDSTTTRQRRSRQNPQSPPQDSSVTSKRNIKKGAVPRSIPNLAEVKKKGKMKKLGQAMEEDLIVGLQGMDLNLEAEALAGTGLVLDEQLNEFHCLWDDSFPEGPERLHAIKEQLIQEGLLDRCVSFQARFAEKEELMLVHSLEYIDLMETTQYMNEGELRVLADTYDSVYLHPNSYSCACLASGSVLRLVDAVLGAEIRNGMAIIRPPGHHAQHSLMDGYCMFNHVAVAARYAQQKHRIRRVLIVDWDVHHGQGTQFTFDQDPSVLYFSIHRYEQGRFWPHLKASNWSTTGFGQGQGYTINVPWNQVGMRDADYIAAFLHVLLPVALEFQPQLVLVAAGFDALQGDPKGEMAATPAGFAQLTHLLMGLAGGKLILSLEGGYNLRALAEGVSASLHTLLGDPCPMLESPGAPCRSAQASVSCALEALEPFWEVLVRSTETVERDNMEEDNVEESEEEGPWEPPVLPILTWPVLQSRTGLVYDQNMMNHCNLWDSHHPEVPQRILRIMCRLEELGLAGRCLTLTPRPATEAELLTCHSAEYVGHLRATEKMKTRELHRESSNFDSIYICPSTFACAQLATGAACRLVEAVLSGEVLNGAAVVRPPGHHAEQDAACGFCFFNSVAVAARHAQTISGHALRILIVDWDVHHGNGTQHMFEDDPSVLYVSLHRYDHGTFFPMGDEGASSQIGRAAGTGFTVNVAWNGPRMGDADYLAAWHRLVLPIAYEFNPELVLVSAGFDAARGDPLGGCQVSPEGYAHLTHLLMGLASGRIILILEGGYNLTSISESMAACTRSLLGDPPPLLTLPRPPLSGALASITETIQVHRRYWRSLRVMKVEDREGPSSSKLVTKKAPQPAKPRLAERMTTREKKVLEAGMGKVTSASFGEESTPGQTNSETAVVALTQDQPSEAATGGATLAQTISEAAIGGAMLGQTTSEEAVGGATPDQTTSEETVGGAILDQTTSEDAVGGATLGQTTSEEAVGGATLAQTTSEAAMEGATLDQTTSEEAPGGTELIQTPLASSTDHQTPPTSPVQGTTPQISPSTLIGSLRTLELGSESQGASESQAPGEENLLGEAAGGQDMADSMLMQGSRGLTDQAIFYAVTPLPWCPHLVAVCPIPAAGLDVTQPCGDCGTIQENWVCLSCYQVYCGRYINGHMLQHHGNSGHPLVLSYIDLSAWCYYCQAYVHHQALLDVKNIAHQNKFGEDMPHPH
# Target: HDAC6 (Homo sapiens (Human), UniProt Q9UBN7)
# Assay: HDAC6 TR-FRET displacement assay
# Conditions: read-out: HDAC6 IC50; displacement of fluorescein labeled tracer from HDAC6; 2 nM HDAC6, 1 nM tracer, 0.5 nM Tb-anti-GST antibody; 30 min pre-incubation, 6 hours at 25° C.
# Text: HDAC6 and Tb-anti-GST antibody were purchased from Signal Chem (cat #PC124) and Cisbio (cat #61GSTTAH), respectively. HEPES, pH 7.5 was purchased from Teknova (Cat #H1575). All other buffer components, NaCl (cat #S5150), KCl (cat #60121), Triton X-100 (cat #T9284), GSH (cat #G4251), BGG (cat #G5009), and BSA (cat #A2153) were purchased from SIGMA.
# Displacement of fluorescein labeled tracer 2-(6-hydroxy-3-oxo-3H-xanthen-9-yl)-5-({[5-(4-{[7-(hydroxycarbamoyl)-2H,3H,4H,5H-thieno[2,3-f][1,4]oxazepine-4-carbonyl]amino}phenoxy)pentyl]carbamothioyl}amino)benzoic acid from HDAC6 was measured in vitro using a TR-FRET assay. The assays were performed in 1536-well plates in a total volume of 6 μL in assay buffer consisting of 50 mM HEPES pH 7.5, 50 mM NaCl, 50 mM KCl, 0.01% Triton X-100, 0.5 mM GSH, 0.03% BGG, 0.01% BSA.
# For concentration response curves (IC50 determination), Compounds were serially diluted 3-fold from 2 mM highest concentration to generate a 10-point concentration gradient. To perform the assay, 30 nL of compound gradient solutions were transferred to the assay plate using the ECHO acoustic dispenser to achieve a final concentration range of 10 μM to 0.000508 uM in 6 μL reaction. 3 μL of HDAC6 in assay buffer were added to the assay plates and pre-incubate at room temp. for 30 mins. After pre-incubation, 3 μL of the tracer and TB-anti-GST antibody mix were added to the assay plates. The final concentrations of HDAC6, tracer, and TB-anti-GST antibody for each assay are 2 nM, 1 nM, and 0.5 nM, respectively. Binding reactions were equilibrated at 25° C. for an additional 6 hours, then read in endpoint mode on the BMG PheraStar (BMG labtech) equipped with a 337-520-490 optical module. The ratio of the 520/490 nm emission was calculated to determine the relative amounts of HDAC6 and tracer complex residue in each well.
# The percent inhibition of HDAC6 (IC50) was calculated according to the following equation.
# As set forth in Table 1, “A” indicates an HDAC6 IC50 value of less than 200 nM; “B” indicates an HDAC6 IC50 value of greater than or equal to 200 nM and less than 500 nM; and “C” indicates an HDAC6 IC50 value of greater than or equal to 500 nM and less than 5 μM.
row,Compound,IC50 [nM]
1,C[C@H]1COc2cc(-c3noc(C(F)(F)F)n3)ccc2CN1C(=O)C1(C#N)CCN(C)CC1,500 to 5000
2,C[C@H]1COc2cc(-c3noc(C(F)(F)F)n3)cc(F)c2CN1C(=O)CC#N,200 to 500
3,C[C@H]1COc2cc(-c3noc(C(F)(F)F)n3)cc(F)c2CN1C(=O)C(C)(C)N,500 to 5000
4,C[C@H]1COc2cc(-c3noc(C(F)(F)F)n3)cc(F)c2CN1C(=O)c1ccc(N2CCOCC2)nc1,200 to 500
5,C[C@H]1COc2cc(-c3noc(C(F)(F)F)n3)cc(F)c2CN1C(=O)C1(C#N)CC1,200 to 500
6,C[C@H]1COc2cc(-c3noc(C(F)(F)F)n3)cc(F)c2CN1C(=O)CC(C)(C)O,< 200
7,C[C@H]1COc2cc(-c3noc(C(F)(F)F)n3)cc(F)c2CN1C(=O)c1cnn2ccccc12,200 to 500
8,C[C@H]1COc2cc(-c3noc(C(F)(F)F)n3)cc(F)c2CN1C(=O)C1(O)CC1,< 200
9,C[C@]1(C(=O)N2Cc3ccc(-c4noc(C(F)(F)F)n4)cc3OC[C@@H]2c2ccccc2)CCOC1,< 200
10,C[C@H]1COc2cc(-c3noc(C(F)(F)F)n3)cc(F)c2CN1C(=O)C1(C)CCNCC1,500 to 5000
11,C[C@H]1COc2cc(-c3noc(C(F)(F)F)n3)cc(F)c2CN1C(=O)[C@@H]1CCN(C)C1,500 to 5000
12,C[C@@]1(C(=O)N2Cc3ccc(-c4noc(C(F)(F)F)n4)cc3OC[C@@H]2c2ccccc2)CCOC1,200 to 500
13,C[C@H]1COc2cc(-c3noc(C(F)(F)F)n3)cc(F)c2CN1C(=O)C1CS(=O)(=O)C1,200 to 500
14,C[C@H]1COc2cc(-c3noc(C(F)(F)F)n3)cc(F)c2CN1C(=O)CCN,500 to 5000
15,C[C@H]1COc2cc(-c3noc(C(F)(F)F)n3)cc(F)c2CN1C(=O)[C@@H]1CCCO1,200 to 500
16,C[C@H]1COc2cc(-c3noc(C(F)(F)F)n3)cc(F)c2CN1C(=O)CCc1nccs1,< 200
17,C[C@H]1COc2cc(-c3noc(C(F)(F)F)n3)cc(F)c2CN1C(=O)c1ccoc1,200 to 500
18,C[C@H]1COc2cc(-c3noc(C(F)(F)F)n3)cc(F)c2CN1C(=O)C1CN(C)C1,500 to 5000
19,C[C@H]1COc2cc(-c3noc(C(F)(F)F)n3)cc(F)c2CN1C(=O)CS(C)(=O)=O,< 200
20,C[C@H]1COc2cc(-c3noc(C(F)(F)F)n3)cc(F)c2CN1C(=O)C1(F)CCN(C)CC1,500 to 5000
21,CC1(C(=O)N2CCOc3cc(-c4nnc(C(F)F)o4)ccc3C2)CCOCC1,< 200
22,C[C@H]1COc2cc(-c3nnc(C(F)F)o3)ccc2CN1C(=O)C1(C)CCOCC1,< 200
23,CNC(=O)c1ccc(C(=O)N2Cc3c(F)cc(-c4noc(C(F)(F)F)n4)cc3OC[C@@H]2C)cc1,200 to 500
24,C[C@H]1COc2cc(-c3noc(C(F)(F)F)n3)cc(F)c2CN1C(=O)C12CCN(CC1)CC2,200 to 500
25,Cc1cc(C(=O)N2Cc3c(F)cc(-c4noc(C(F)(F)F)n4)cc3OC[C@@H]2C)on1,< 200
26,C[C@H]1COc2cc(-c3noc(C(F)(F)F)n3)cc(F)c2CN1C(=O)c1csnn1,200 to 500
27,C[C@H]1COc2cc(-c3noc(C(F)(F)F)n3)cc(F)c2CN1C(=O)[C@H]1CCNC1=O,< 200
28,C[C@H]1COc2cc(-c3noc(C(F)(F)F)n3)cc(F)c2CN1C(=O)[C@H]1CCN(C)C1,500 to 5000
